Each structure is given as a SMILES string. This is a selection; strong and weak results do not stand in their true shares. Some of these compounds have results that are not shown, active ones among them. Inconclusive results are not listed. Active and inactive are the calls of the source. Calls follow the shape of the dose curve; as a rule, active = well fitted activation curve with a large enough effect; inconclusive = small, poorly fitted or top-dose-only effect, or another doubt; inactive = no such curve, though single readings can be large or run the other way.

Here are results for eleven compounds from PubChem BioAssay AID1508624 (National Center for Advancing Translational Sciences (NCATS), 2021).

A short description of the assay: Primary qHTS for Identification of Small Molecule Activators of Huntingtin-Antisense Promoter Activity. Also: nearly all actives have a fitted effect of over 55% in size. The settings on record: HEK293 HTT-AS promoter firefly luciferase reporter, 24 h, percent change from vehicle, -100% = no light; at 57.5 µM (top of the series). From the text:
Assay Provider: Russell L. Margolis M.D.
Department Neurology, Johns Hopkins University School of Medicine, Baltimore, MD
Huntington's Disease (HD) is a neurodegenerative disorder caused by a CAG repeat expansion in exon 1 of huntingtin (HTT). While there are currently no disease-modifying treatments for HD, recent efforts have focused on development of nucleotide-based therapeutics to lower HTT expression. As an alternative to siRNA or oligonucleotide methods, we hypothesized that suppression of HTT expression might be accomplished by small molecules that either (1) directly decrease HTT expression by suppressing HTT promoter activity or (2) indirectly decrease HTT expression by increasing the promoter activity of HTT-AS, the gene antisense to HTT that appears to inhibit expression of HTT.
We developed and employed a high throughput screen for modifiers of HTT and HTT-AS promoter activity using luminescent reporter HEK293 cells; of the 52,041 compounds tested, we identified 898 replicable hits. We used a rigorous stepwise approach to assess compound toxicity and the capacity of the compounds to specifically lower huntingtin protein in 5 different cell lines, including HEK293 cells, HD lymphoblastoid cells, mouse primary neurons, HD iPSCs differentiated into cortical-like neurons, and HD hESCs. We found no compounds which were able to lower huntingtin without lowering cell viability in all assays, though the potential efficacy of a few compounds at non-toxic doses could not be excluded.
SEQUENCE No. (1, 2, 3, etc.); […] (e.g., Cells, Incubation, Reagent, etc.); VALUE and DESCRIPTION.
1; Reagent; 4 uL; 2,500 Hek293 luciferase reporter cells per wells
3; Compound; 23 nL; Control inhibitor / compound library
5; Reagent; 2.5 uL; Firefly Luc reagent; Dual-Glo Luciferase Reporter Assay System (Promega)
6; Time; 10 min; room temperature incubation
7; Detection; Luminescence; FLuc
NOTES (numbers refer to sequence above)
1; High-throughput screening, measuring luminescence from a Hek293 luciferase reporter, was performed in 1,536 well white-walled tissue-culture treated plates. 2,500 cells were plated in 4 µL of Opti-MEM per well using a Multidrop Combi Reagent Dispenser (ThermoFisher).
2; Assay plates were cultured for 24 hours.
3; Control inhibitor (PTC124; final concentration of 50 uM) and compound library (at final concentrations of 460 nM - 57.5 uM) were added to the assay plate using the Kalypsis Pintool Robotic System equipped with 1536 pinheads.
4; Cells were then incubated for 24 hours at 37 degrees C prior to luminescence measurements.
5; In all cases, luminescence was measured using the Dual-Glo Luciferase Reporter Assay System (Promega) following the manufacturer's instructions.
6; Room temperature incubation.
7; Luminescence signal was obtained using the PerkinElmer ViewLux plate reader. Results were normalized to vehicle control (0% activity) and zero RLU (-100% activity).
(qHTS replaces the single test concentration by a dilution series.)
For the compound `CC(C)Oc1ccc(C(=O)NCC2(N(C)C)CCCCC2)cc1`, the activity change, positive = activation was inactive: 6.26%.

As for `COc1cc(C(=O)NCC2(N(C)C)CCCCC2)cc(OC)c1OC`, the activity change, positive = activation is inactive: 2.51%.

On to `Cc1cccc(C(=O)NCC2(N(C)C)CCCCC2)c1`, for which the activity change, positive = activation is inactive: 3.52%.

Consider `CC(C)COc1ccc(C(=O)NCC2(N(C)C)CCCCC2)cc1`, for which the activity change, positive = activation was inactive: 11.2%.

Consider `COc1cccc(C(=O)NCC2(N3CCOCC3)CCCCC2)c1`, for which the activity change, positive = activation was inactive: -6.73%.

For `COc1ccc(C(=O)NCC2(N(C)C)CCCCC2)cc1Cl`, the activity change, positive = activation is inactive: 17.6%.

As for `CCOc1cccc(C(=O)NCC2(N(C)C)CCCCC2)c1`, the activity change, positive = activation was inactive: -4.22%.

For `CCCCOc1ccccc1C(=O)NCC1(N(C)C)CCCCC1`, the activity change, positive = activation was inactive: -10.1%.

Regarding `CN(C)C1(CNC(=O)c2ccccc2[N+](=O)[O-])CCCCC1`, the activity change, positive = activation is inactive: -11.9%.

For `CN(C)C1(CNC(=O)c2ccccc2F)CCCCC1`, the activity change, positive = activation was inactive: -7.65%.

Take `CN(C)C1(CNC(=O)c2cccc(Cl)c2)CCCCC1`: the activity change, positive = activation was inactive: -0.26%.
